The experiment deals with Pa21 gene. The experiment is described as follows: Pa21 gene expression by real-time RT-PCR in primary skeletal muscle cells. Format: cell-based, human. Conditions: 100 uM, about 18-20 hours, vehicle control = 100. From the text:
Human hepatocyte HuH7 cells, which are epithelial cells of liver, were obtained from Japan Health Science Research Resources Bank (Osaka, Japan). Human primary adipocytes, which are connective tissue cells specialized for the synthesis and storage of fat, were obtained from Zen-Bio, Inc (Research Triangle Park, NC). Human primary skeletal muscle cells (SKMC) were obtained from Cambrex Bio Science (Walkersville, Md.). PPARα agonists, Wy14643 (Agatha, et al, 2000, Archives of Biochemistry and Biophysics 380:353-359) and fenofibrates were obtained from Cayman Chemical (Ann Arbor, Mich.) and Sigma (St Louis, Mo.), respectively.
Human HuH7 cells were cultured in Dulbecco's Modified Eagle Medium with 10% Fetal Bovine Serum (Gibco, N.Y.). […]
Reverse transcription (RT) and PCR were conducted in one step using “One-Step RT-PCR Master Mix Reagent” kit (Applied Biosystems, Foster City, Calif.) in ABI PRISM 7700 Sequence Detection System (Applied Biosystems). […] PCR data were collected by Ct value (the cycle number at which logarithmic PCR plots cross a calculated threshold line) according to the manufacturer's guidelines and the value was used to determine the Δ^Ct (Ct of the target gene minus the Ct of 18S ribosomal RNA controls). Relative mRNA level was calculated using the equation 2^−ΔΔCt as described previously (Heid et al., 1996, Genome Res. 6:986-994).

For the compound `CC(C)OC(=O)C(C)(C)Oc1ccc(C(=O)c2ccc(Cl)cc2)cc1` [Fenofibrate], the “Pa21 (H4960) gene expression, Percentage ± SE (%)” value was 670 ± 46%.

The record behind these values is patent US20050191668A1, “Methods of using peroxisome proliferator-activated receptor alpha target genes” (priority 2004, published 2005).
